For one molecule, ER protein expression results are on record in patent publication US20190233442A1, “SELECTIVE ESTROGEN RECEPTOR DOWN-REGULATORS (SERDS)” (Xavier University of Louisiana, priority 2016, published 2019).

Sequences of proteins named here, by UniProt entry; tags and fusion partners are left off.
UniProt P03372, whole entry: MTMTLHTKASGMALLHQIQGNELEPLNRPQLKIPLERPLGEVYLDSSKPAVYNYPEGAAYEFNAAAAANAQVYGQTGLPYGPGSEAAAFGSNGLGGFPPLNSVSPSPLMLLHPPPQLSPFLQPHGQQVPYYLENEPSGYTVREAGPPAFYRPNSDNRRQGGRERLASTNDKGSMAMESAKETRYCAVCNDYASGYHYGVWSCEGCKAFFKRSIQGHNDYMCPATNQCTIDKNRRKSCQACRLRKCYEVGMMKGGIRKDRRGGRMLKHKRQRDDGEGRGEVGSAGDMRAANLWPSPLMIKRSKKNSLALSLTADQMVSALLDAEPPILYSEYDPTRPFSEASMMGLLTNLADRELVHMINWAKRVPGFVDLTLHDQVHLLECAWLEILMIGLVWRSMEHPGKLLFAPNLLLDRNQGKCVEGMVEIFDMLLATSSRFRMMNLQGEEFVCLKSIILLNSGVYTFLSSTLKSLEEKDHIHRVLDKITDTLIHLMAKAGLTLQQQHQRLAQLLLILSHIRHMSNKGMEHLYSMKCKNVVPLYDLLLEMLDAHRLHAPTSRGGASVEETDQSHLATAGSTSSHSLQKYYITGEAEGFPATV

The assay has as its target T1, estrogen receptor α (ERα) (Homo sapiens, UniProt P03372).
T1 construct: endogenous in cells; host or cells: MCF-7
Briefly: Western blot of ER protein expression (down-regulation). Type of assay: cell-based. The settings on record: MCF-7 cells, FIG. 13. For orientation: In western blotting, separated proteins are transferred to a membrane and probed.

As for `CC/C(=C(\c1ccc(O)cc1)c1ccc(/C=C/C(=O)O)cc1)c1ccccc1` [GW-7604, reference compound], the ER protein expression result is “dramatically downregulated”.
